Measurements as given in PubChem BioAssay AID602248 (The Scripps Research Institute Molecular Screening Center, 2012).
This is a selection; strong and weak results do not stand in their true shares. The source made the active and inactive calls. Cut-off read from the data, not from the text of the source: active = activation above about 15%; inactive = the rest.

Assay: counter-screen for M1 agonists: effect in parental CHO-K1 cells (AID 602248);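 note: untransfected CHO-K1 host cells lacking M1 receptor as counterscreen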
Details: Fluo-8 calcium fluorescence, at 3 µM, stronger effect = higher value, scaled to maximal ATP response, vehicle zero

Structure (SMILES)	activation
O=C(OC1CN2CCC1CC2)c1cccc(Cl)c1 (stereo not drawn)	inactive: 1.15%
Nc1ccc([As](=O)(O)c2ccc([N+](=O)[O-])cc2)cc1	inactive: -0.09%
C(Cc1nn[nH]n1)Cc1nn[nH]n1	inactive: 0.47%
O=[As](O)(c1ccccc1)c1ccc(O)cc1	inactive: -0.22%
O=[N+]([O-])c1ncn(CCn2cnc([N+](=O)[O-])n2)n1	inactive: -0.1%
CC(=O)NC(SC(=S)N(C)C)C(Cl)(Cl)Cl (stereo not drawn)	inactive: 0.36%
O=[N+]([O-])c1ccc(O)c(/C=N/Nc2ccc([N+](=O)[O-])cc2[N+](=O)[O-])c1	inactive: 1.16%
CC1C(=O)OC2CCN3CC4OC4(COC(=O)C(C)(O)C1(C)O)C23 (stereo not drawn)	inactive: 1.09%
O=P1(N(CCCl)CCCl)OCCC2CCCCN21 (stereo not drawn)	inactive: -0.26%
Cc1ccc(NP(=O)(Oc2cccc(C)c2)Oc2cccc(C)c2)nc1	inactive: 1.02%
C=C1C(=O)OC2CCN3CC=C(COC(=O)C(C)(O)C4(CO4)C1C)C23 (stereo not drawn)	inactive: 0.15%
c1ccc(-c2nn[nH]n2)c(-c2nn[nH]n2)c1	inactive: 0.68%
O=C(NC1CCS(=O)(=O)C1)NP(=S)(Oc1ccccc1)Oc1ccccc1 (stereo not drawn)	inactive: -0.21%
CCNC(=S)/N=C(\N)N[N+](=O)[O-]	inactive: 0.7%
CN(C)C(=O)Oc1noc2ccccc12	inactive: 0.09%
O=c1c2cc([N+](=O)[O-])ccc2[nH]c2c([N+](=O)[O-])cc([N+](=O)[O-])cc12	inactive: 6.88%
Cc1ccccc1OP(=O)(Nc1ccccn1)Oc1ccccc1C	inactive: 6.43%
CC(NC(=O)COC(=O)C(O)(c1ccccc1)c1ccccc1)c1ccccc1 (stereo not drawn)	inactive: 4.34%
CCN(C(=O)COC(=O)C(O)(c1ccccc1)c1ccccc1)c1c(N)n(Cc2ccccc2)c(=O)[nH]c1=O	inactive: 0.02%
Clc1ccc(N2CCN(Cc3c[nH]c4ncccc34)CC2)cc1	inactive: 2.1%
CCC(=O)N1C2C3N(C(=O)CC)C1C1N(C(=O)CC)C(C(N1C(=O)CC)N3C(=O)CC)N2C(=O)CC	inactive: 0.66%

Structure (SMILES)	activation
O=C(OC1CN2CCC1CC2)c1ccccc1 (stereo not drawn)	inactive: 1.62%
Cc1ccc(OP(=O)(Nc2ccccn2)Oc2ccc(C)cc2)cc1	inactive: 6.3%
CC(=O)NC(SC(=S)N(CC(C)C)CC(C)C)C(Cl)(Cl)Cl (stereo not drawn)	inactive: 0.25%
COC(=O)c1cc2c(s1)N=C(c1ccccc1)N(C)P2(=O)N1CCOCC1 (stereo not drawn)	inactive: 0.39%
CC(C)(C)C(=O)NC(Sc1ccccc1)C(Cl)(Cl)Cl (stereo not drawn)	inactive: -0.04%
CCc1cc(O)c([N+](=O)[O-])c(C)c1[N+](=O)[O-]	inactive: 2.61%
CCOc1ccc(C2=NCC(CBr)S2)cc1 (stereo not drawn)	inactive: 0.6%
O=P1(Nc2nc3ccc(Cl)cc3s2)COc2ccccc2O1 (stereo not drawn)	inactive: 0.18%
CC(=O)Nc1ccc(Oc2c([N+](=O)[O-])cc([N+](=O)[O-])cc2[N+](=O)[O-])cc1	inactive: 1.35%
CC(=O)Nc1ccc([As](=O)(O)O)c(O)c1	inactive: 2.48%
C[C@@H]1C=CCP(=O)(Oc2ccccc2)O1 (stereo partly drawn)	inactive: 0.43%
C[C@H]1OP(=O)(Oc2ccccc2)C[C@@H]2O[C@@H]21 (stereo partly drawn)	inactive: 0.09%
CCN(CC)CCOC(=O)C(O)(c1ccccc1)c1ccccc1	inactive: 0.01%
Cc1ccccc1CN(C)C(=O)COC(=O)C(O)(c1ccccc1)c1ccccc1	inactive: 1.35%
CC1C(=O)OC2CCN3CC=C(COC(=O)C(C)(O)C1(C)O)C23 (stereo not drawn)	inactive: -0.2%
COC(=O)C1(C)COP(=O)(NCc2ccccc2)OC1 (stereo not drawn)	inactive: 0.08%
N#C/C(=C\c1ccc(N(CCBr)CCBr)cc1)C(N)=O	inactive: 0.86%
CC(=O)c1ccc(N2CC2c2ccncc2)cc1 (stereo not drawn)	inactive: 0.6%
Clc1ccc(Cl)c(NC2=NCC(CBr)S2)c1 (stereo not drawn)	inactive: 0%
CN1CCCC(OC(=O)C(c2ccccc2)c2ccccc2)C1 (stereo not drawn)	inactive: -0.05%
Cc1ccc(OP(=O)(Nc2nccs2)Oc2ccc(C)cc2)cc1	inactive: 2.01%

Structure (SMILES)	activation
CC(C)[C@H]1C(=O)O[C@@H]2CCN3CC=C(COC(=O)[C@](C)(O)[C@]1(C)O)[C@H]23	inactive: 1.43%
COc1ccccc1OP(=O)(Nc1ccc(C)cn1)Oc1ccccc1OC	inactive: 1.19%
Cc1ccc(N/C(=N/P(=O)(N2CCOCC2)N2CCOCC2)N2CCOCC2)cc1	inactive: -0.41%
CN(C(=O)Cc1ccc(Cl)c(Cl)c1)[C@H]1CCCC[C@H]1N1CCCC1	inactive: 0.43%
NC(=O)c1cc([N+](=O)[O-])cc([N+](=O)[O-])c1N	inactive: 0.63%
O=[N+]([O-])C1C(O)C(O)C([N+](=O)[O-])C(O)C1O (stereo not drawn)	inactive: 1.26%
O=C(NC(Sc1ccncn1)C(Cl)(Cl)Cl)c1ccccc1 (stereo not drawn)	inactive: 0.71%
Oc1ccccc1CNc1ccccn1	inactive: 0.97%
CC(C)CC(=O)NC(Sc1ccc(Cl)cc1)C(Cl)(Cl)Cl (stereo not drawn)	inactive: -0.77%
Nc1cc(N)c2nonc2c1[N+](=O)[O-]	inactive: 0.35%
CN(C(=O)Cc1ccc(Cl)c(Cl)c1)[C@H]1CCCC[C@@H]1N1CCCC1	inactive: 0.56%
Cc1ccc(NP(=O)(Oc2ccccc2F)Oc2ccccc2F)nc1	inactive: 4.87%
CCOP(=O)(Nc1ccccc1)OCC	inactive: -0.14%
Cc1cc(SC(NC(=O)c2ccc(F)cc2)C(Cl)(Cl)Cl)ncn1 (stereo not drawn)	inactive: 0.59%
CN(C)P(=O)(N(C)C)n1c(Nc2ccccc2)nnc1-c1ccccc1	inactive: 0.03%
O=P(Nc1nc2ccc(Cl)cc2s1)(c1ccccc1)c1ccccc1	inactive: 5.07%
CC(=O)O[C@]1(C)C(=O)OC/C2=C/CN(C)CCC(OC(=O)[C@@](O)(C(C)O)C[C@H]1C)C2=O (stereo partly drawn)	inactive: 0.22%
CCCC1OP(N)(=O)OCC1CC (stereo not drawn)	inactive: 1.3%
O=C(O)c1ccccc1[As](=O)(O)O	inactive: -0.12%
CC(=O)Nc1ccc([As](=O)(O)O)cc1	inactive: 0.46%
Nc1cccc2ccc([As](=O)(O)O)cc12	inactive: -0.08%
